For this assay, the system named is carbachol-induced diarrhea. Briefly: Inhibition of carbachol-induced diarrhea in mice. Particulars: male CF1 mice, i.p., carbachol i.p. 30 minutes after drug.

For `CC1CN(CC(O)(C(=O)OC2CN3CCC2CC3)c2ccccc2)CC(C)O1` (stereo not shown), the “Antag. Carbachol-ind. diarrhea, mice, ip, ED50” value is reported as 32.1 mg/lg.

The record behind these values is patent publication US4843074A.
